One compound from patent US10300155B2, “Alpha-synuclein ligands” (Washington University, priority 2015, dated 2019) can be followed below.

Sequences of proteins named here, by UniProt entry; tags and fusion partners are left off. Residues count along the entry.
UniProt P05067, 672-713 limits assumed: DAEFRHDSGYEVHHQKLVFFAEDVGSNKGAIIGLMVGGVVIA
UniProt P10636, 560-692: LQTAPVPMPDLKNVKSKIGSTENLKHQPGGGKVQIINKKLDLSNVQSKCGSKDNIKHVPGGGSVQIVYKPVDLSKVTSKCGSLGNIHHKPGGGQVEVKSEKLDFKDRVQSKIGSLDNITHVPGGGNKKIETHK

One may read the Kd as the equilibrium constant for the complex coming apart.

The target in one assay is Aβ fibrils (Homo sapiens, UniProt P05067). The following applies: read-out: affinity constant (Kd) of ThioT for Aβ fibrils; 1 μM fibrils, 2 h at 37° C.
The target of another assay is tau fibrils (Homo sapiens, UniProt P10636). Conditions: read-out: affinity constant (Kd) of ThioT for tau fibrils; 1 μM fibrils, 2 h at 37° C.

In the case of `Cc1ccc2c(c1)sc(-c1ccc(N(C)C)cc1)[n+]2C` [ThT, Thioflavin T], the values for the Kd on Aβ fibrils and on tau fibrils were 32 nM and 2700 nM, respectively.
